# Some compounds may have been tested in ways that are not shown here.
# Tests used:
# klotho^hm mice [1] = assay: survival / lifespan of klotho^hm mice; conditions: treatment in drinking water, versus untreated
# klotho^hm mice [2] = assay: histology of tissue calcification (H&E, von Kossa) in klotho^hm mice; conditions: klotho^hm mice 8 weeks old; drinking water: (NH4)2SO4 0.14 M, NH4Cl 0.28 M, NH4NO3 0.28 M, acetazolamide 800 mg/l, chloroquine diphosphate 0.288 mg/ml
substance,measurement,setting,value
Ammonium nitrate,lifespan,klotho^hm mice [1],drastic extension of the lifespans
same,"calcification in analyzed tissues (trachea, lungs, kidneys, stomach, vessels)",klotho^hm mice [2],strongly reduce
